PubChem BioAssay AID651636 (Sanford-Burnham Center for Chemical Genomics, 2012)
Only a part is listed here, and it is no random draw. Some salts or complexes appear as unconnected parts, following the source record. Active and inactive are the calls of the source. Rule as the data show it: active = inhibition above about 38%; inactive = the rest.

Amino acid sequences for entries named in this document (tags omitted).
UniProt P32249, whole entry: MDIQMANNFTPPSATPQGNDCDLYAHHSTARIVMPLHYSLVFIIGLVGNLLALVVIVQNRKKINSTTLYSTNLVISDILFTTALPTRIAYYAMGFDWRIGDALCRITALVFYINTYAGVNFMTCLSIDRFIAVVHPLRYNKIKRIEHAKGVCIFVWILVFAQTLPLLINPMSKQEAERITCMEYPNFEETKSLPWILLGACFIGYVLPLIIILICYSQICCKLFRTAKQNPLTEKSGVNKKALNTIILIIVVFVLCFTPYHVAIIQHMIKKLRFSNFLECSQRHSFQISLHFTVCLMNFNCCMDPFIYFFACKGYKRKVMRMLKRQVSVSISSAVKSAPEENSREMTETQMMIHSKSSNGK

The molecules below were run against G-protein coupled receptor 183 (Homo sapiens) (UniProt P32249) (assay: EBI2 receptor antagonists, beta-arrestin recruitment, primary screen, cell-based, luminescence, 7a,25-OHC stimulation, uHTS (AID 651636;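 also: enzyme fragment complementation signal reports receptor beta-arrestin coupling in cells; 0% = agonist plus DMSO wells and 100% = wells without agonist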)). Conditions: 7a,25-OHC stimulated, at 5 µM, stronger effect = higher value.

Row | Compound | inhibition
1 | CP(=O)(Nc1cccc(Br)c1)Oc1ccccc1 (centres undefined) | inactive: -3.3%
2 | Cc1cc(C)cc(OP(C)(=O)Nc2ccccn2)c1 (centres undefined) | inactive: -10%
3 | Cc1ccc(C)c(NP(C)(=O)Oc2ccccc2)c1 (centres undefined) | inactive: 1.33%
4 | Cc1cc(C)cc(OP(C)(=O)Nc2ccc(C)cc2C)c1 (centres undefined) | inactive: 6.34%
5 | CCOC(=O)c1ccc(NP(C)(=O)Oc2cc(C)cc(C)c2)cc1 (centres undefined) | inactive: -14.7%
6 | COc1ccccc1OP(C)(=O)Nc1cccc(Br)c1 (centres undefined) | inactive: 1.66%
7 | CC1=NCCc2c1[nH]c1ccccc21.O=[N+]([O-])c1cc([N+](=O)[O-])c(O)c([N+](=O)[O-])c1 | inactive: -5.91%
8 | O=C(O)c1cccc(Nc2c([N+](=O)[O-])cc([N+](=O)[O-])cc2[N+](=O)[O-])c1 | inactive: 14.6%
9 | CP(=O)(Nc1ccc(SC(F)(F)F)cc1)Oc1ccccc1 (centres undefined) | inactive: 0.457%
10 | CCCOc1ccc(NP(C)(=O)Oc2ccc(Cl)cc2)cc1 (centres undefined) | inactive: -5.16%
11 | COc1ccc(-c2ccccn2)cc1.O=[N+]([O-])c1cc([N+](=O)[O-])c(O)c([N+](=O)[O-])c1 | inactive: 5.62%
12 | CN1CCCCC1COC(=O)C1(O)c2ccccc2CCc2ccccc21 (centres undefined) | inactive: 0.82%
13 | COc1ccccc1OP(C)(=O)Nc1c(C)cccc1C (centres undefined) | inactive: -1.37%
14 | CCOC(=O)C(CC)C1=NC(C)(C)Cc2ccccc21.O=[N+]([O-])c1cc([N+](=O)[O-])c(O)c([N+](=O)[O-])c1 (centres undefined) | inactive: 2.47%
15 | O=[N+]([O-])c1cc([N+](=O)[O-])c(Nc2nnnn2CCO)c([N+](=O)[O-])c1 | inactive: 8.15%
16 | CC1=C2N=C(C=C3N=C(C(C)=C4[N-][C@@](C)([C@@H]5N=C1[C@](C)(CCC(=O)NC[C@@H](C)OP(=O)([O-])O[C@H]1[C@@H](O)[C@@H](n6cnc7cc(C)c(C)cc76)O[C@@H]1CO)[C@H]5CC(N)=O)[C@@](C)(CC(N)=O)[C@@H]4CCC(N)=O)[C@@](C)(CC(N)=O)[C@@H]3CCC(N)=O)C(C)(C)[C@@H]2CCC(N)=O.[C-]#N.[Co+3] | inactive: 4.97%
17 | Cc1nc2ccc3ccccc3c2s1.O=[N+]([O-])c1cc([N+](=O)[O-])c(O)c([N+](=O)[O-])c1 | inactive: 4.78%
18 | O=[N+]([O-])c1cc([N+](=O)[O-])c(-c2cnn(-c3ccccc3)c2)c([N+](=O)[O-])c1 | inactive: 18.6%
19 | CN(Cc1cccnc1)C(=O)COc1ccc(Cl)c(Cl)c1.O=[N+]([O-])c1cc([N+](=O)[O-])c(O)c([N+](=O)[O-])c1 | active: 46.9%
20 | O=[N+]([O-])c1cc([N+](=O)[O-])c(-n2nnc3ccccc32)c([N+](=O)[O-])c1 | inactive: -5.51%
21 | CP(=O)(Nc1ccccn1)Oc1ccc(Cl)cc1 (centres undefined) | inactive: -8.12%
22 | CCOP(C)(=S)SCC(=O)NC(C)C(=O)O (centres undefined) | inactive: 5.09%
23 | O=[N+]([O-])c1cc([N+](=O)[O-])c(O)c([N+](=O)[O-])c1.c1ccc(Oc2ccncc2)cc1 | inactive: 4.32%
24 | CCOC(=O)c1ccc(NP(C)(=O)Oc2ccc(OC)cc2)cc1 (centres undefined) | inactive: -7.18%
25 | Cc1cc(C)cc(OP(C)(=O)Nc2ccc(SC(F)(F)F)cc2)c1 (centres undefined) | inactive: -8.1%

Row | Compound | inhibition
26 | CCc1ccc(OP(C)(=O)N2CCN(c3ccc([N+](=O)[O-])cc3)CC2)cc1 (centres undefined) | inactive: 1.04%
27 | CP(=O)(NC(=O)Nc1ccccc1)Oc1ccccc1 (centres undefined) | inactive: -1.04%
28 | CP(=O)(Oc1ccccc1)OC(c1ccccc1)C(F)(F)F (centres undefined) | inactive: 0.978%
29 | CP(=O)(Nc1ccc(SC(F)(F)F)cc1)Oc1ccc(Cl)cc1 (centres undefined) | inactive: 40.9%
30 | Cc1ccc(Nc2c([N+](=O)[O-])cc([N+](=O)[O-])cc2[N+](=O)[O-])cc1 | inactive: -7.75%
31 | Cc1cccc(C)c1OP(C)(=O)Nc1ccc(SC(F)(F)F)cc1 (centres undefined) | inactive: -5.57%
32 | COc1ccccc1OP(C)(=O)Nc1ccccc1 (centres undefined) | inactive: -4.4%
33 | CP(=O)(Nc1ccccc1Br)Oc1ccccc1 (centres undefined) | inactive: -9.7%
34 | CP(=S)(Nn1cnnc1)Oc1ccccc1 (centres undefined) | inactive: -1.82%
35 | COc1ccc(OP(C)(=O)Nc2cccc(F)c2)cc1 (centres undefined) | inactive: -3.83%
36 | COc1ccccc1OP(C)(=O)Nc1cc(Cl)ccc1C (centres undefined) | inactive: -4.09%
37 | Cc1cc(C)cc(OP(C)(N)=O)c1 (centres undefined) | inactive: 5.91%
38 | CCOC(=O)c1ccc(NP(C)(=O)Oc2ccccc2)cc1 (centres undefined) | inactive: -11.6%
39 | Cc1ccc(NP(C)(=O)Oc2ccccc2)c(C)c1 (centres undefined) | inactive: -1.29%
40 | COc1ccccc1OP(C)(=O)Nc1ccc(C)cc1 (centres undefined) | inactive: -0.889%
41 | Cc1cccc(C)c1OP(C)(N)=O (centres undefined) | inactive: -1.52%
42 | CC(C)(C)c1ccc(OP(C)(=O)Nc2ccc(SC(F)(F)F)cc2)cc1 (centres undefined) | inactive: 12.1%
43 | O=[N+]([O-])c1ccc2c(c1)C=Nc1ccccc1O2 | inactive: -0.359%
44 | O=[N+]([O-])c1cc([N+](=O)[O-])c(Nc2cccnc2)c([N+](=O)[O-])c1 | inactive: -12.4%
45 | COc1ccccc1-c1ccccn1.O=[N+]([O-])c1cc([N+](=O)[O-])c(O)c([N+](=O)[O-])c1 | inactive: 5.84%
46 | CCN(CC)CCCOC(=O)C(O)(c1ccccc1)c1ccccc1 | inactive: -3.08%
47 | CCc1ccc(OP(C)(=O)O)cc1 | inactive: 8.56%
48 | COc1ccccc1OP(C)(=O)Nc1ccc(C)cc1C (centres undefined) | inactive: 4.07%
49 | CP(=O)(Nc1ccccn1)Oc1ccccc1 (centres undefined) | inactive: 4.83%
50 | O=[N+]([O-])c1cc([N+](=O)[O-])c(Nc2ccccn2)c([N+](=O)[O-])c1 | inactive: 8.17%

Row | Compound | inhibition
51 | Cc1c(NP(C)(=O)Oc2ccc(C(C)C)cc2)c(=O)n(-c2ccccc2)n1C (centres undefined) | inactive: -1.13%
52 | CN(C)CCOC(=O)C(O)(c1ccccc1)C1CCCC1 (centres undefined) | inactive: -13.2%
53 | COc1ccc(OP(C)(=O)Nc2ccccn2)cc1 (centres undefined) | inactive: -12.5%
54 | COc1ccccc1OP(C)(=O)Nc1ccc(Br)cc1 (centres undefined) | inactive: -10.6%
55 | CP(=O)(OCCOc1ccccc1)OCCOc1ccccc1 | inactive: 2.92%
56 | CP(=O)(Nc1ccc(Cl)cc1Cl)Oc1ccccc1 (centres undefined) | inactive: 7.13%
57 | CCCCCCCCCCCCCCCC1C[N+](C)(C)CCOP(C)(=O)O1 (centres undefined) | inactive: -0.198%
58 | COc1ccc(OP(C)(=O)Nc2ccccc2Br)cc1 (centres undefined) | inactive: -4.57%
59 | COc1ccccc1OP(C)(=O)Nc1ccc(C)c(C)c1 (centres undefined) | inactive: -6.08%
60 | Cc1cc(C)cc(OP(C)(=O)Nc2cccc(C(F)(F)F)c2)c1 (centres undefined) | inactive: 2.52%
61 | O=C1C(O)=C([N+](=O)[O-])C(=O)C(O)=C1[N+](=O)[O-] | inactive: 0.0707%
62 | CP(=O)(OC12CC3CC(CC(C3)C1)C2)OC12CC3CC(CC(C3)C1)C2 | inactive: 5.83%
63 | CCOC(=O)c1ccc(NP(C)(=O)Oc2ccc(Cl)cc2)cc1 (centres undefined) | inactive: -3.93%
64 | CN(C)C(=O)c1c([N+](=O)[O-])cc([N+](=O)[O-])cc1[N+](=O)[O-] | inactive: -4.23%
65 | CP(=O)(Nc1ccc(Cl)cc1)Oc1ccc(F)cc1 (centres undefined) | inactive: -1.56%
66 | CC(C)(C)c1ccc(OP(C)(=O)O)cc1 | inactive: -12.2%
67 | COc1ccccc1OP(C)(=O)Nc1ccccc1Br (centres undefined) | inactive: -0.839%
68 | CCc1ccc(OP(C)(=O)Nc2cccnc2)cc1 (centres undefined) | inactive: -10.6%
69 | CP(=O)(Oc1ccccc1)N1CCOC1=O (centres undefined) | inactive: 2.25%
70 | O=C(OCCCN1CCCC1)C(O)(c1ccccc1)C1CCCCC1 (centres undefined) | inactive: -7.05%
71 | COc1ccccc1OP(C)(=O)Nc1c(C)n(C)n(-c2ccccc2)c1=O (centres undefined) | inactive: -4.23%
72 | COc1ccc(OP(C)(=O)Nc2ccc(Br)cc2)cc1 (centres undefined) | inactive: -10.5%
73 | CCN(CC)CC(O)COC(=O)C(O)(c1ccccc1)C1CCCCC1 (centres undefined) | inactive: -18.6%
74 | O=[N+]([O-])c1cc([N+](=O)[O-])c(C(F)(F)F)c([N+](=O)[O-])c1O | inactive: 4.74%
75 | Cc1ccccc1NP(C)(=O)Nc1ccccc1C | inactive: 1.94%

Row | Compound | inhibition
76 | CP(=O)(Nc1ccc2c(c1)OCCO2)Oc1ccccc1 (centres undefined) | inactive: -18.4%
77 | CCOP(C)(=S)SCC(=O)NC(C)(CC)C(=O)O (centres undefined) | inactive: -10.7%
78 | CP(=O)(Nc1ccc(SC(F)(F)F)cc1)Oc1ccc(F)cc1 (centres undefined) | inactive: -0.39%
79 | Cc1c(C(c2ccc3c(c2)OCO3)c2c(C)n(C)n(-c3ccccc3)c2=O)c(=O)n(-c2ccccc2)n1C.O=[N+]([O-])c1cc([N+](=O)[O-])c(O)c([N+](=O)[O-])c1 | inactive: -1.01%
80 | Cc1cc(-c2cccc3ccccc23)c(C)cn1.O=[N+]([O-])c1cc([N+](=O)[O-])c(O)c([N+](=O)[O-])c1 | inactive: 10.1%
81 | O=[N+]([O-])c1cc([N+](=O)[O-])c(NCC2CCS(=O)(=O)C2)c([N+](=O)[O-])c1 (centres undefined) | inactive: -1.82%
82 | O=[N+]([O-])c1ccc(OP2(=O)COCCO2)cc1 (centres undefined) | inactive: 1.66%
83 | COc1ccc(NP(C)(=O)Oc2ccccc2OC)cc1 (centres undefined) | inactive: -5.52%
84 | CN(C)CCOC(=O)C(O)(c1ccccc1)C1CCCCC1 (centres undefined) | inactive: -1.82%
85 | COc1ccc(OP(C)(=O)Nc2cccc(Br)c2)cc1 (centres undefined) | inactive: -5.54%
86 | O=[N+]([O-])c1cc([N+](=O)[O-])c(OC2CCCCC2O)c([N+](=O)[O-])c1 (centres undefined) | inactive: -7.42%
87 | CCCCCOc1ccc(NP(C)(=O)Oc2ccc(Cl)cc2Cl)cc1 (centres undefined) | inactive: 8.14%
88 | CP(=O)(Nc1ccccc1)Oc1ccc(F)cc1 (centres undefined) | inactive: -2.17%
89 | CCN(CC)CCCOC(=O)C(O)(c1ccccc1)C1CCCCC1 (centres undefined) | inactive: -12.1%
90 | Cc1c([N+](=O)[O-])cc([N+](=O)[O-])c(Br)c1[N+](=O)[O-] | inactive: 0.688%
91 | COc1ccc(OP(C)(=O)Nc2ccc(SC(F)(F)F)cc2)cc1 (centres undefined) | inactive: 7.61%
92 | CCOC(=O)c1ccc(NP(C)(=O)Oc2ccc(F)cc2)cc1 (centres undefined) | inactive: -31.2%
93 | CCN(CC)CCCNc1ccccc1[N+](=O)[O-].O=[N+]([O-])c1cc([N+](=O)[O-])c(O)c([N+](=O)[O-])c1 | inactive: 3.48%
94 | COc1ccc2c(c1O)-c1c(O)c(OC)cc3c1[C@H](C2)[N+](C)(C)CC3.O=[N+]([O-])c1cc([N+](=O)[O-])c([O-])c([N+](=O)[O-])c1[O-] | inactive: -25.9%
95 | O=C(OCCN1CCN(CCOCc2ccccc2)CC1)C(O)(c1ccccc1)c1ccccc1 | inactive: -4.34%
96 | O=C(OC1CN2CCC1CC2)c1ccc([N+](=O)[O-])cc1 (centres undefined) | inactive: -2.64%
97 | CC(C)c1ccc(OP(C)(=O)Nc2ccc(SC(F)(F)F)cc2)cc1 (centres undefined) | inactive: 9.71%
98 | CP(=O)(Nc1ccccc1F)Oc1ccccc1 (centres undefined) | inactive: -0.945%
99 | O=[N+]([O-])c1cc([N+](=O)[O-])c(Nc2ccc(Cl)cc2)c([N+](=O)[O-])c1 | inactive: 1.54%
